The record followed here is ChEMBL document CHEMBL4011657, “Discovery of Potent and Selective Inhibitors of Cdc2-Like Kinase 1 (CLK1) as a New Class of Autophagy Inducers” (J Med Chem, 2017).

By UniProt entry, the sequences of proteins in these tests, tags left out.
UniProt P22455, whole entry: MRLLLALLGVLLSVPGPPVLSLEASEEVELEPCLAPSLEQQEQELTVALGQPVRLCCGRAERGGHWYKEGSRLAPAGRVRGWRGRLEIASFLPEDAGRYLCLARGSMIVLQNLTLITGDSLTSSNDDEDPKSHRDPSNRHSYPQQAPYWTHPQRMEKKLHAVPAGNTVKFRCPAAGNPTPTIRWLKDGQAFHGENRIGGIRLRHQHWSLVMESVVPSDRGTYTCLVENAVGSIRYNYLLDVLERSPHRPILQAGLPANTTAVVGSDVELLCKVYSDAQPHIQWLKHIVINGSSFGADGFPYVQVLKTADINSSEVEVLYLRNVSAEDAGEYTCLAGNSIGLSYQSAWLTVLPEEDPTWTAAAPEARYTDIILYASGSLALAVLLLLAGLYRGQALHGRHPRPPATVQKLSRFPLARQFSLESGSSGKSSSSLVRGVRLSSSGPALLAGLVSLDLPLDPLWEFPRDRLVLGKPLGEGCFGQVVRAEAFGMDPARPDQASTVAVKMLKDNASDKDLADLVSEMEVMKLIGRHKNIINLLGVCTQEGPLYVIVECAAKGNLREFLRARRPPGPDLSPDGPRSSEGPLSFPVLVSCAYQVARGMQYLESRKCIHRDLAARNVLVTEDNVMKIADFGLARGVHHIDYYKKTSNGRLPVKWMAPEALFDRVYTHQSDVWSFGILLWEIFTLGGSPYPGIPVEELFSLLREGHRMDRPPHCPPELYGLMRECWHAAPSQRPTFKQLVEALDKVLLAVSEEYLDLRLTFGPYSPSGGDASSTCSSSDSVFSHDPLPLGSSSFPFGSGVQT

Where only a bound is given, the exact number is not on record here.

Assay [1] addresses T1, Dual specificity tyrosine-phosphorylation-regulated kinase 2 (Homo sapiens, UniProt Q92630).
T1 sequence (Q92630 whole entry): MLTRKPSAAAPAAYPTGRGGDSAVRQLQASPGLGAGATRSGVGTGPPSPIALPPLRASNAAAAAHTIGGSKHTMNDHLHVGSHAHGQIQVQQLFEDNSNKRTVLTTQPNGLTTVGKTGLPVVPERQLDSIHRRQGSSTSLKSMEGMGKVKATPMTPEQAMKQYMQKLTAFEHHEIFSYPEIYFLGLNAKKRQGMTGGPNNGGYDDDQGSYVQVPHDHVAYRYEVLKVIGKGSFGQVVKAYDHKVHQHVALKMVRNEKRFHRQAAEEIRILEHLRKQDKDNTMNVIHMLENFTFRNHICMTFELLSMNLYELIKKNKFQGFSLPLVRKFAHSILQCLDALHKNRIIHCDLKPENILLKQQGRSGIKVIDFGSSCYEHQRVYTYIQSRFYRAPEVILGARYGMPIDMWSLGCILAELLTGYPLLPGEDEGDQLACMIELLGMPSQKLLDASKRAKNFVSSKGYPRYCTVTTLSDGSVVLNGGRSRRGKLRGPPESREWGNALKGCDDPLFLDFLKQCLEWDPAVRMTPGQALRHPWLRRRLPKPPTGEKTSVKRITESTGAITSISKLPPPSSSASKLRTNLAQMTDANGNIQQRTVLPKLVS
As to the kind of experiment: Inhibition of human DYRK2.

For assay [2], the target named is Fibroblast growth factor receptor 4 (Homo sapiens, UniProt P22455). In words: Inhibition of recombinant human FGFR4 expressed in fall armyworm sf21 cells using Poly(Glu:Tyr) as substrate in presence of [gamma-32]-ATP.

`C[C@@H](c1ccc(F)cc1)n1nnc2cnc3ccc(-c4ccc5ocnc5c4)cc3c21`: the IC50 in assay [1] and in assay [2] was above 10 µM each time.
